Patent US20050164331A1, “Method and device for detecting toxic material in water using microbial fuel cell” (priority 2002, published 2005)

System: electrochemically active bacteria in the sludge
Conditions: microbial fuel cell with active sludge; fuel glucose and glutamic acid (CODcr 200 ppm); standard solution added successively at 0.01-0.05 ppm; current measured at 60 seconds interval

mercury [Hg]
concentration at which the constantly generated current showed a sharp drop: 0.03 ppm
